Experiments:
Format in all cases: cell-based
BT-474 cells = test: Cell Viability Assay (CellTiter-Glo), BT-474; settings: BT-474, Table 2 (another assay)
MCF7 breast cancer cell = test: Cell Viability Assay (CellTiter-Glo), MCF7; settings: MCF7, Table 2 (another assay)
NCI-N87 cells = test: Cell Viability Assay (CellTiter-Glo), NCI-N87; settings: NCI-N87, Table 2 (another assay)
SK-BR-3 cells = test: Cell Viability Assay (CellTiter-Glo), SK-BR-3; settings: SK-BR-3, Table 2 (another assay)

In the case of Trastuzumab, the IC50 (BT-474 cells) is reported as 267 nM, the IC50 (MCF7 breast cancer cell) is reported as 447 nM and the IC50 (NCI-N87 cells) is reported as 69.5 nM. For the same substance, the IC50 (SK-BR-3 cells) was 122 nM.

— patent US11529422B2, “Polymer linkers and their uses” (priority 2016, dated 2022)
